The nature of assay [1]: Viability qHTS for spleen associated tyrosine kinase inhibitor (SYKi) drug resistant MV4-11 cells (AID 1963824). Note: potency is the fitted concentration of half-maximal effect; nearly all actives have a fitted effect of over 35% in size. As to conditions: SYKi-resistant MV4-11 viability, CellTiter-Glo, 72 h. The source says: Department of Medicine, Hematology/Oncology
University Hospital Frankfurt, Germany.
Trials have shown promising clinical activity of the selective SYK inhibitor entospletinib in patients with high expressing HOXA9/MEIS1 acute leukemias. As the development of resistance mechanisms is a common problem in the use of targeted drugs, we performed a chemical library screen to identify drug sensitivities in SYK inhibitor resistant AML cells. […] Glucocorticoids are potent immunosuppressants which work in part by inhibiting the transcription of cytokine genes.
Described herein is a viability screen to look for activity in the SYK inhibitor drug resistant cell line against four NCATS compound libraries (MIPE 5.0, NPC, NPACT, and Kinase) totaling 11372 compounds. Active hits were reacquired for confirmation and further secondary assay testing.
SEQUENCE No. (e.g., 1, 2, 3, etc.); […] (e.g., Cells, Incubation, Reagent, etc.); VALUE; DESCRIPTION.
1; Media; 2uL; white, solid-bottom Corning assay plate.
2; Compounds; 23nL; Echo acoustic dispenser. […]
7; Detection; Luminescence; ViewLux plate reader (PerkinElmer). […]
1. Quantitative high-throughput screening (qHTS) of small molecule compounds was conducted on drug resistant SYKi MV4-11 cell line. […]
5. Viability was assessed by adding 3uL of CellTiter-Glo detection reagent (Promega). […]
7. Luminescence was measured on a ViewLux plate reader (PerkinElmer).
A general note: Quantitative high-throughput screening tests each substance at several concentrations.

Assay [2] is described as follows: Cellular viability qHTS for adrenocortical cancer (ACC) cell line SW-13 (AID 1963989).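 Note: cells grown in serum-free medium with ITS supplement; % is set by controls: 0 for no effect and ±100 for the full control effect; nearly all actives have a fitted effect of over 65% in size.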 The conditions noted are these: SW-13 ACC cells viability, CellTiter-Glo, 48 h; stronger effect = lower value. The method in brief:
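IC50 and maximal-response values come from four-parameter logistic fits of titration data. SW-13 cells in serum-free medium received compounds (up to 46 uM final) for 48 h before CellTiter-Glo luminescence.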

Only a part is listed here, and it is no random draw. Records with an inconclusive call do not appear. Active and inactive are the calls of the source. Calls come from the whole dose curve; as a rule, active = well fitted curve in the direction sought with a large enough effect; inconclusive = small, poorly fitted or top-dose-only effect, or another doubt; inactive = no such curve, though single readings can be large; an effect the other way counts as inactive or inconclusive.

Take `Cc1cc([N+](=O)[O-])cc([N+](=O)[O-])c1O`: the Potency in assay [1] was active: 34.4 µM. Turning to `OCCSCCO`, in assay [2], the activity (max response) is inactive: 10.7%.

For the origin of these results see PubChem BioAssay (NCATS).
